{"source": "patent US20240043615A1", "about": "“AMINO ACID POLYMER-PLATINUM ANTICANCER DRUG CONJUGATES” (priority 2020, published 2024)", "key": {"[1]": {"test_system": "CT26 tumor", "details": "CT26-tumor bearing mice; for Pt concentration in tumors versus time: i.v."}, "[2]": {"test": "Spleen toxicity evaluation in mice", "details": "mice after treatment"}, "[3]": {"test_system": "normal human bronchial epithelial HBEC3-KT cells", "details": "20 μg (Pt)/mL, 30-60 min"}, "[4]": {"test_system": "human non-small cell lung cancer A549 cells", "details": "20 μg (Pt)/mL, 30-60 min"}, "[5]": {"test": "Plasma pharmacokinetics in tumor-free mice (Pt by ICP-OES)", "details": "4 mg (Pt)/kg Pt-equivalent dosage"}, "[6]": {"test": "Body weight change in mice", "details": "tumor-bearing mice; high dose P(G-A)-Asp-Pt is 3-fold higher than the oxaliplatin dose"}}, "note": "Like-named read-outs stand apart in the source and are kept apart here.", "data": [{"substance": "Poly L-Glutamic and poly L-Aspartic acid (Glu:Asp = 7:3)-L-Aspartic-Platinum [P(G-A)-Asp-Pt]", "values": [{"measurement": "Pt concentration in tumors versus time", "setting": "[1]; 12 mg (Pt)/kg", "value": "dramatic tumor accumulation with increased concentration"}, {"measurement": "Pt concentration in tumors versus time", "setting": "[1]; same dosage of oxaliplatin and P(G-A)-Asp-Pt", "value": "significantly higher"}, {"measurement": "Pt concentration in tumor relative to cell culture IC50", "setting": "[1]; versus IC50 at 24 or 48 h", "value": "well above those in cell culture IC50 at 24 or 48 h"}, {"measurement": "spleen appearance and weight", "setting": "[2]", "value": "minimal changes in spleen"}, {"measurement": "cytotoxicity in HBEC3-KT cells", "setting": "[3]", "value": "little effect on normal HBEC3-KT cells"}, {"measurement": "cytotoxicity in A549 cells", "setting": "[4]", "value": "selectively kills A549 cancer cells"}, {"measurement": "Pt concentration in plasma versus time (circulation time)", "setting": "[5]", "value": "significantly prolonged circulation time"}, {"measurement": "plasma AUC", "setting": "[5]; versus oxaliplatin", "value": "higher AUC"}, {"measurement": "body weight during the efficacy study", "setting": "[6]", "value": "stable bodyweight"}]}]}
